This experiment has as its target Prolyl 4-hydroxylase subunit alpha-1 (Homo sapiens, UniProt P13674). As to the kind of experiment: Inhibition of human recombinant CP4H1 expressed in Escherichia coli Origami B(DE3) at 10 uM pre-incubated for 2 mins followed by alpha-ketoglutarate addition using dansylGlyProProGlyOEt substrate in Tris-HCl buffer at pH 7.8 at 30 degC by HPLC method.

Chains of the proteins cited; added tags and fusions are not shown. Lines headed by an entry give the natural chain unless they say otherwise; changes in a name come on top.
UniProt P13674: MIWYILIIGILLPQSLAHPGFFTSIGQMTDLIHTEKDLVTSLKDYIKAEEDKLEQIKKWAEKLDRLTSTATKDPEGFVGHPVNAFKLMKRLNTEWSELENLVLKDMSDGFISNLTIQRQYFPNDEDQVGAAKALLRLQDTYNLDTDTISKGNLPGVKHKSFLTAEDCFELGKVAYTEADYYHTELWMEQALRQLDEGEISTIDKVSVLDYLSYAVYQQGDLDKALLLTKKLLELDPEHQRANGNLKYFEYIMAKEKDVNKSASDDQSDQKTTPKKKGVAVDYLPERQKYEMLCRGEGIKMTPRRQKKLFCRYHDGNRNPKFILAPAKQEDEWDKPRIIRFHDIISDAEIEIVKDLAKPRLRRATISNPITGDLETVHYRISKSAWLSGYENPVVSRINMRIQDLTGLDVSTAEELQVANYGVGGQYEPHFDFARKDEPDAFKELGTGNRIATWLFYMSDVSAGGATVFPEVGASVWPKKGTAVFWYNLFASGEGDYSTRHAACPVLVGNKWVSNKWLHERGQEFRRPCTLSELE

The structures appear in SMILES notation. A value given as a limit tells only on which side of the number the result lay.

For the compound `O=C(O)c1ccc(-c2ccc(C(=O)O)cn2)nc1`, the inhibition was greater than 90%.

In general, inhibition refers to the drop in the measured response relative to a control, in per cent.

The values above are taken from ChEMBL document CHEMBL3585337, “Selective inhibition of prolyl 4-hydroxylases by bipyridinedicarboxylates” (Bioorg Med Chem, 2015).
